# Source: PubChem BioAssay AID504810 (National Center for Advancing Translational Sciences (NCATS), 2011)
# Sequences of proteins named here, by UniProt entry; tags and fusion partners are left off.
# UniProt P16473, whole entry, looked up: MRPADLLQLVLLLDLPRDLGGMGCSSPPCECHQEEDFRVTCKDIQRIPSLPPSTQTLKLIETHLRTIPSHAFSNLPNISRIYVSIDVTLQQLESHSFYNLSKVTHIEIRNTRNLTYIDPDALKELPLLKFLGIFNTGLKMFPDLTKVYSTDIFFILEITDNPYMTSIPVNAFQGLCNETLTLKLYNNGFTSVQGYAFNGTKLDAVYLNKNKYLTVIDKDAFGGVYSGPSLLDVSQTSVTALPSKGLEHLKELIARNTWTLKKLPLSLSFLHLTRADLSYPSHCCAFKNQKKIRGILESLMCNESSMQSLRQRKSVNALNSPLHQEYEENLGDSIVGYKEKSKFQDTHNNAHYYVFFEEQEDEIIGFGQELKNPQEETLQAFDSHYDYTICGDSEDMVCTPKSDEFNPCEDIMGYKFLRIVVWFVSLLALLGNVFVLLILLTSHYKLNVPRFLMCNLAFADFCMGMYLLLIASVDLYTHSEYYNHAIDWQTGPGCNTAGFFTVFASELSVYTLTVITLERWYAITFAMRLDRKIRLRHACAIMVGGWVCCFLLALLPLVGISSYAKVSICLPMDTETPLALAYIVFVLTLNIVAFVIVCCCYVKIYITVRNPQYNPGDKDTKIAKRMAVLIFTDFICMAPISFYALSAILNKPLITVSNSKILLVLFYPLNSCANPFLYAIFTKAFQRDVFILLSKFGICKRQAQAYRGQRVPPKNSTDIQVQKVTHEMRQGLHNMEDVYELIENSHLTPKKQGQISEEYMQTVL
# Values joined by “and” are separate entries in the source; they are usually repeats but may differ in a detail not shown here. Equal values may be shown once. The entries are a selection whose mix differs from that of the whole data set. Active and inactive are the calls of the source.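 The calls were made as follows: active = activity change below a set negative limit, meaning inhibition stronger than a set level (cut at about -70% in these data); inconclusive = activity change between two set negative limits; inactive = the rest.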
# Target: Thyrotropin receptor (Homo sapiens) (UniProt P16473)
# Assay: Antagonists of the Thyroid Stimulating Hormone Receptor: HTS campaign
# Conditions: TSHR-expressing cells, TSH-stimulated cAMP HTRF, 2 h; at 11.5 µM; hits give low values
# Text: The thyroid-stimulating hormone receptor (TSHR) is a member of the 7 trans-membrane-spanning receptor (7TMR) family of cell surface receptors. TSHR-mediated hyperthyroidism is important in thyroid pathology. The development of small molecule antagonists of TSHR may lead to therapeutic approaches for TSHR-mediated hyperthyroidism caused by constitutively activating mutations or stimulating auto-antibodies associated with Graves' disease. Graves' disease is the leading cause of hyperthyroidism and is caused by autoantibodies that stimulate TSHR (TsAbs) causing thyroid growth and unregulated overproduction of thyroid hormones and existing treatments have liabilities (agranulocytosis). In addition, TSHRs are known to be expressed in multiple extrathyroidal tissues including bone, brain, kidney, testis, fat and cells of the immune system but the role of the TSHR in these tissues is not clear. Therefore, TSHR antagonists/inverse agonists could be used as probes of extrathyroidal TSHR function. Finally, TSHR inverse agonists, which are a subclass of antagonists that inhibit agonist-independent (or basal or constitutive) TSHR signaling, could be used to inhibit TSH-independent signaling in patients with recurrent or metastatic thyroid cancer who are receiving thyroid hormone to suppress TSH. In collaboration between scientist from the NCGC and the NIDDK, a miniaturized HTRF high-throughput screen was developed. It's a cell based assay, where an anti cAMP antibody contains a fluorescent cryptate tag (excitation 337 nm; emission 620 nm) and the acceptor is cAMP-d2 (excitation 620 nm; emission 665 nm). When antibody and cAMP-d2 interact and are excited by a 337 nm light, a FRET occurs resulting in emission at 665 nm. The assay is competition between cAMP-d2 and cAMP (from the cell lysate). The homogeneous protocol allows for one step dispense after stimulation that is automation friendly. NIH Chemical Genomics Center [NCGC] NIH Molecular Libraries Probe Centers Network [MLPCN] MLPCN Grant: MH090855-01 Assay Submitter (PI): Marvin Gerhengorn
# 1. 3ul of 200 TSHR freshly harvested cells/well are dispensed into a 1536 TC-treated white solid bottom plate. 2. Through pintool addition, 23nl of compounds and control in 100% DMSO are added to the plate. 3. Then 1ul of EC80 TSH (4nM final) is added to the plate. 4. Assay is incubated at 37 deg C for 2 hours. 5. 2ul of cAMP antibody diluted 1:20 in lysis buffer is added. 6. Immediately following, 2ul of d2 diluted 1:20 in HBSS is added seperately. 7. The assay is incubated for 30 minutes at ambient room temperature. 8. The result is obtained by using a ViewLux read-out with HTRF settings.
# % is scaled to controls: 0 for no effect and ±100 for the full control effect.
row,SMILES,"activity change, negative = inhibition"
1,C[C@H]1OP(=O)(Oc2ccccc2)C[C@@H]2O[C@@H]21 (some centres undefined),inactive: -1.47%
2,C[C@@H]1C=CCP(=O)(Oc2ccccc2)O1 (some centres undefined),inactive: -6.9%
3,Cc1ccccc1CN(C)C(=O)COC(=O)C(O)(c1ccccc1)c1ccccc1,inactive: -9.42%
4,CC(=O)c1ccc(N2CC2c2ccncc2)cc1 (centres undefined),inactive: -0.614%
5,CC(=O)Nc1ccc(Oc2c([N+](=O)[O-])cc([N+](=O)[O-])cc2[N+](=O)[O-])cc1,inactive: -3.81%
6,CC(=O)Nc1ccc([As](=O)(O)O)c(O)c1,inactive: 4.77%
7,O=P1(Nc2nc3ccc(Cl)cc3s2)COc2ccccc2O1 (centres undefined),inactive: -0.217%
8,CC(C)(C)C(=O)NC(Sc1ccccc1)C(Cl)(Cl)Cl (centres undefined),inactive: -0.188%
9,CCC(=O)N1C2C3N(C(=O)CC)C1C1N(C(=O)CC)C(C(N1C(=O)CC)N3C(=O)CC)N2C(=O)CC,inactive: -9.18%
10,O=C(OC1CN2CCC1CC2)c1ccccc1 (centres undefined),inactive: 11.7%
11,Cc1ccc(OP(=O)(Nc2ccccn2)Oc2ccc(C)cc2)cc1,inactive: -9.54%
12,CC(=O)NC(SC(=S)N(CC(C)C)CC(C)C)C(Cl)(Cl)Cl (centres undefined),inactive: 5.55%
13,COC(=O)c1cc2c(s1)N=C(c1ccccc1)N(C)P2(=O)N1CCOCC1 (centres undefined),inactive: 2.99%
14,CN(C)C(=O)Oc1noc2ccccc12,inactive: 2.15%
15,CC(NC(=O)COC(=O)C(O)(c1ccccc1)c1ccccc1)c1ccccc1 (centres undefined),inactive: -8.21%
16,Cc1ccccc1OP(=O)(Nc1ccccn1)Oc1ccccc1C,inactive: -3.35%
17,CCOC(=O)NC(Sc1ccccc1)C(Cl)(Cl)Cl (centres undefined),inactive: -7.21%
18,Cc1ccc(NP(=O)(Oc2cccc(C)c2)Oc2cccc(C)c2)nc1,inactive: 3.38%
19,c1ccc(-c2nn[nH]n2)c(-c2nn[nH]n2)c1,inactive: 38%
20,O=C(NC1CCS(=O)(=O)C1)NP(=S)(Oc1ccccc1)Oc1ccccc1 (centres undefined),inactive: -2.97%
21,CCNC(=S)/N=C(\N)N[N+](=O)[O-],inactive: 13%
22,O=[As](O)(c1ccccc1)c1ccc(O)cc1,inactive: 7.58%
23,O=[N+]([O-])c1ncn(CCn2cnc([N+](=O)[O-])n2)n1,inactive: -3.41%
24,CC(=O)NC(SC(=S)N(C)C)C(Cl)(Cl)Cl (centres undefined),inactive: -0.256%
25,O=[N+]([O-])c1ccc(O)c(/C=N/Nc2ccc([N+](=O)[O-])cc2[N+](=O)[O-])c1,active: -73.4%

row,SMILES,"activity change, negative = inhibition"
1,O=C(OC1CN2CCC1CC2)c1cccc(Cl)c1 (centres undefined),inactive: 1.34%
2,C(Cc1nn[nH]n1)Cc1nn[nH]n1,inactive: 23.4%
3,Nc1ccc([As](=O)(O)c2ccc([N+](=O)[O-])cc2)cc1,inactive: 1.18%
4,CN(C)C1(CNC(=O)c2ccc(Cl)c(S(N)(=O)=O)c2)CCCCC1,inactive: 11.3%
5,O=P(Nc1ccccn1)(c1ccc(Br)cc1)c1ccc(Br)cc1,inactive: 6.78%
6,C[C@H]1OP(=O)(Oc2ccccc2)[C@H](O)[C@H](O)[C@H]1N=[N+]=[N-] (some centres undefined),inactive: -4.19%
7,O=P(Nc1nc2ccccc2s1)(c1ccccc1)c1ccccc1,inactive: -2.51%
8,O=P(Nc1nccs1)(c1ccccc1)c1ccccc1,inactive: 5.67%
9,CC(C)C(=O)NC(Sc1ccccc1)C(Cl)(Cl)Cl (centres undefined),inactive: -10.6%
10,c1nnnn1CCn1cnnn1,inactive: -3.52%
11,CCN(/C(=N/P(=O)(N1CCOCC1)N1CCOCC1)N1CCOCC1)c1ccc(OC)cc1,inactive: -3.63%
12,C[N+]1=C2C=CC=CC=C2SC12C([N+](=O)[O-])=CC([N+](=O)[O-])=C[C-]2[N+](=O)[O-] (centres undefined),inactive: -4.41%
13,Nc1ccc([As](=O)(O)c2ccc(N)cc2)cc1,inactive: 19.8%
14,CC1CCN(C(=O)Oc2c(Cl)cc(Cl)c3cccnc23)CC1,inactive: -0.902%
15,CC(C)=N/N=C(\N)N[N+](=O)[O-],inactive: 25.2%
16,COc1ccc(C2=NCC(CBr)S2)cc1 (centres undefined),inactive: -3.27%
17,O=[N+]([O-])c1cc([N+](=O)[O-])c(CCNc2ccccc2)c([N+](=O)[O-])c1,inactive: -40.4%
18,CCc1nc2c(n1)c1c(non1O)c1c2no[n+]1[O-],inactive: -22.8%
19,Cc1ccc(NP(=O)(Oc2ccccc2)Oc2ccccc2)nc1,inactive: -5.47%
20,CC(=O)N1C2C3N(C(C)=O)C1C1N(C(C)=O)C(C(N1C(C)=O)N3C(C)=O)N2C(C)=O,inactive: 25.5%
21,O=[N+]([O-])c1cccc2n[nH]nc12,inactive: 16.8%
22,O=[N+]([O-])c1ncn(CCn2ncnc2[N+](=O)[O-])n1,inactive: 7.27%
23,CC(C)(C)C(=O)NC(Sc1ccncn1)C(Cl)(Cl)Cl (centres undefined),inactive: 4%
24,O=C(O)CNc1ccc([As](=O)(O)O)cc1,inactive: -1.04%
25,O=[N+]([O-])c1cccc(NC2=NCC(CBr)S2)c1 (centres undefined),inactive: 19.4%

row,SMILES,"activity change, negative = inhibition"
1,O=C(Nc1cc([As](=O)(O)O)ccc1O)c1ccccc1,inactive: 11%
2,O=[N+]([O-])c1cc([N+](=O)[O-])c(CCN2CCOCC2)c([N+](=O)[O-])c1,inactive: -10.1%
3,Nc1cccc2ccc([As](=O)(O)O)cc12,inactive: -3.58%
4,CCN(N=Nc1nonc1N)c1nonc1N,inactive: -3.45%
5,O=P(Nc1nc2ccc(Cl)cc2s1)(c1ccccc1)c1ccccc1,inactive: 6.27%
6,CC(=O)Nc1ccc([As](=O)(O)O)cc1,inactive: -13.3%
7,O=C(O)c1ccccc1[As](=O)(O)O,inactive: 4.87%
8,Cc1ccc(NP(=O)(Oc2ccccc2F)Oc2ccccc2F)nc1,inactive: 16.5%
9,Cc1cc(SC(NC(=O)c2ccc(F)cc2)C(Cl)(Cl)Cl)ncn1 (centres undefined),inactive: -7.98%
10,CCOP(=O)(Nc1ccccc1)OCC,inactive: -3.54% and inactive: -6.57%
11,O=C(NC(Sc1ccncn1)C(Cl)(Cl)Cl)c1ccccc1 (centres undefined),inactive: 9.19%
12,Oc1ccccc1CNc1ccccn1,inactive: 18.1%
13,Nc1cc(N)c2nonc2c1[N+](=O)[O-],inactive: -8.27%
14,CC(C)CC(=O)NC(Sc1ccc(Cl)cc1)C(Cl)(Cl)Cl (centres undefined),inactive: -10.9%
15,Cc1ccc(N/C(=N/P(=O)(N2CCOCC2)N2CCOCC2)N2CCOCC2)cc1,inactive: -3.08%
16,NC(=O)c1cc([N+](=O)[O-])cc([N+](=O)[O-])c1N,inactive: 36.5%
17,CN1CCCC(OC(=O)C(c2ccccc2)c2ccccc2)C1 (centres undefined),inactive: 14.6%
18,Clc1ccc(Cl)c(NC2=NCC(CBr)S2)c1 (centres undefined),inactive: 15.6%
19,Cc1ccc(OP(=O)(Nc2nccs2)Oc2ccc(C)cc2)cc1,inactive: -2.52%
20,COc1ccccc1OP(=O)(Nc1ccc(C)cn1)Oc1ccccc1OC,inactive: 2.44%
21,COc1ccc(N/C(=N/P(=O)(N2CCOCC2)N2CCOCC2)N2CCOCC2)cc1,inactive: -2.55%
22,Cc1c2c(nc3ccccc13)SC(C(Cl)Cl)C2 (centres undefined),inactive: -1.63%
23,Cc1cc(=O)[nH]c(N[N+](=O)[O-])n1,inactive: -4.72%
24,O=C(OC1CN2CCC1CC2)C12CC3CC(CC(C3)C1)C2 (centres undefined),inactive: 6.03%
25,COc1cc(I)ccc1[As](=O)(O)O,inactive: 2.89%

row,SMILES,"activity change, negative = inhibition"
1,COc1ccc2nc(NP(=O)(c3ccccc3)c3ccccc3)sc2c1,inactive: -2.84%
2,ClCCSc1nnc(-c2cccnc2)o1,inactive: -4.32%
3,CC(C)c1ccc(OP(=O)(Nc2ccccn2)Oc2ccccc2F)cc1 (centres undefined),inactive: -6.46%
4,O=[N+]([O-])c1cc([N+](=O)[O-])c(-c2ccn[nH]2)s1,inactive: -12.7%
5,CC(C)NC(=O)NP(=O)(Oc1ccccc1)Oc1ccccc1,inactive: 2.33%
6,CCN(CC)C(=S)SC(NC=O)C(Cl)(Cl)Cl (centres undefined),inactive: -3.93%
7,COc1cc(C(=O)NCC2(N3CCOCC3)CCCCC2)ccc1OCC(C)C,inactive: -4.07%
8,O=[As](O)(c1ccc(O)cc1)c1ccccc1O,inactive: 22.1%
9,C[As](=O)(O)c1cccc(C(=O)O)c1,inactive: 21.1%
10,Cc1ccc(OP(=O)(Nc2ccc([N+](=O)[O-])cn2)Oc2ccc(C)cc2)cc1,inactive: -8.35%
11,Cc1ccc2nc3c(c(C)c2c1)CC(C(Cl)Cl)S3 (centres undefined),inactive: -9.89%
12,CCOC(=O)Nc1cccc([As](=O)(O)O)c1,inactive: 0.829%
13,Cc1cc(SC(NC=O)C(Cl)(Cl)Cl)ncn1 (centres undefined),inactive: 7.51%
14,O=P(Nc1ccccn1)(c1cccc2ccccc12)c1cccc2ccccc12,inactive: 3.19%
15,O=[N+]([O-])c1ccc(Nc2ccc(Oc3ccc([N+](=O)[O-])cc3[N+](=O)[O-])cc2)c([N+](=O)[O-])c1,inactive: 3.56%
16,CCOC(=O)Nc1ccc([As](=O)(O)O)c(O)c1,inactive: -7.59%
17,Cc1cc(SC(NC(=O)c2ccccc2)C(Cl)(Cl)Cl)nc(C(C)C)n1 (centres undefined),inactive: 3.58%
18,CCCCOc1ccc(C(=O)NCC2(N3CCCCC3)CCCCC2)cc1OC,inactive: 0.651%
19,O=C(OC1CN2CCC1CC2)c1cccc([N+](=O)[O-])c1 (centres undefined),inactive: 11.7%
20,CCOC(=O)c1ccc(NC(=O)C(C)(CCl)SC)cc1 (centres undefined),inactive: -4.59%
21,CCC(C)N(CC(C)C)C(=S)SC(NC(C)=O)C(Cl)(Cl)Cl (centres undefined),inactive: 27.8%
22,COP1(=S)c2c(C)nn(CCC#N)c2N=C(c2ccc(F)cc2)N1C (centres undefined),inactive: 2.49%
23,O=C(Nc1ccncc1[N+](=O)[O-])c1ccc([N+](=O)[O-])cc1[N+](=O)[O-],inactive: 0.604%
24,O=C(COc1ccccc1)OC1CN2CCC1CC2 (centres undefined),inactive: 5.8%
